## Antibody variant affinities, Ab-14 heavy chain, assay B

Source: Li et al. 2023 (doi:10.1038/s41467-023-39022-2), MIT Lincoln Laboratory and A-Alpha Bio; data file from the FLAb repository.

Binding partner: SARS-CoV-2 spike HR2 peptide, sequence PDVDLGDISGINAS.

The variants keep the light chain, the linker and the frameworks of Ab-14 (scFv order VH, the linker GGGGSGGGGSGGGGS, VL).
VH: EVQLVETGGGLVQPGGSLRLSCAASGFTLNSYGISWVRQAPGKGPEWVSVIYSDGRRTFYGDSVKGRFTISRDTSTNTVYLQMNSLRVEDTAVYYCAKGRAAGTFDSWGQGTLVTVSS
VL: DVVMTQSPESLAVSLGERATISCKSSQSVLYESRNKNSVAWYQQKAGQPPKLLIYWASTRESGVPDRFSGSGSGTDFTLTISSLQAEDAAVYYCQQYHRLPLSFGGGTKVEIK

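The parent was found by panning a naive human phage display library on the peptide. Designed CDR sequences, proposed from the first random library and measured here. Their group label is 14H_Ctrl (Ctrl: baseline library sampled from a position-specific scoring matrix, with some repeated check sequences). AlphaSeq pools MATa yeast showing the antibodies with MATalpha yeast showing the peptide. Binding brings cells together so that they mate, and sequencing counts the barcode pairs among the diploids. The ratio of observed to expected reads was calibrated, replicate by replicate, on BCL2-family standards whose Kd was known from biolayer interferometry. There are six technical replicates.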

Each variant is given by its three heavy chain CDRs, as the data file delimits them; those of the parent are GFTLNSYGIS, VIYSDGRRTFYGDSVK, GRAAGTFDS.
Numbers give log10(Kd / nM), so 0 is 1 nM and 3 is 1 µM. Smaller is tighter.
Replicates are averaged; those with no signal do not enter the mean.
"nd" means that the variant was in the library but no mating with the target was seen in that replicate; the authors take this as a sign of poor binding, and no number exists.
Empty control strains, which show no peptide, gave a signal in 1% of pairings with all heavy chain designs; the median was 2.08 and 95% of these signals were weaker than 0.84. No background was subtracted. The control count says in how many pairings with the empty strains this scFv gave a signal, with their mean in brackets.

CDR-H1,CDR-H2,CDR-H3,"replicates, log10 nM","log10 Kd (nM), mean",signal with controls
GFDLNNYGIS,VIYSDGRRTFYGDSVK,GVAAGTFDS,0.82 0.61 0.61 0.50 0.67 0.72,0.65,2 of 18 (2.71)
GFQLNSYGIS,VIYSDGRRTFYGDSVK,GDNAGTFDS,0.72 2.31 2.00 2.74 1.41 0.94,1.69,1 of 18 (2.86)
GFTLNSYGIS,VIYSDGRRTFYADQVK,IRAAGTFHS,1.01 2.05 1.55 1.26 0.54 0.52,1.15,0 of 18
GFQLNEYGIS,VIYSDGRRTFYGDSVK,GRAALTFNS,nd nd nd nd nd nd,nd,0 of 18
GLTLNSYGIS,VIYADGRRTFYGDSVK,GRAAGTFDS,-0.34 0.33 0.10 -0.62 0.03 0.04,-0.08,0 of 18
GFDLDEYGIS,VIYSDGRRTFYGDSVK,GRAAGTFDS,nd nd nd 0.52 0.22 nd,0.37,0 of 18
GFTLNSYGIS,VIYSDGYRTFYGDDVK,GRAAGQFDS,nd nd nd nd nd nd,nd,0 of 18
GFTLNSYGIS,VIYSDGVRTFYADSVK,GRQAGTFDS,0.50 0.55 0.41 0.47 0.82 0.75,0.58,0 of 18
GFTLNSYGNS,VIYSDGRRTFYGDSVR,GRAAGTFDS,nd 1.51 1.97 1.02 nd 1.39,1.47,0 of 18
GFTLNSYGIS,VIYSDGRRTIYGDSVK,GRAAGTFDS,1.37 2.62 0.61 1.17 1.44 2.07,1.55,0 of 18
GFTLNDYGIS,VIYSDGRRTFYGDEVK,GSAAGTFDS,1.26 1.77 nd 1.21 0.49 1.04,1.15,0 of 18
GFTLNSYGIS,VIYSDGRRTFYGDSVK,GRAAGTFKS,nd nd nd nd nd nd,nd,0 of 18
GFNLNSYGIS,VIYSDGRRTFYGDSVK,GRAAFTFDS,nd nd nd nd nd nd,nd,0 of 18
GFTLNQYGVS,VIYADGRRTMYGDSVK,GRAAGSFDS,0.87 0.41 0.91 -0.04 0.21 0.46,0.47,2 of 18 (1.24)
GFTLNSYGIS,VIYSDGRRTFYGNSVK,GKEAGNFDS,nd nd nd nd nd nd,nd,0 of 18
GFTLQSYGIS,VIYADGRRTFYDDSVK,GRAAGTFDS,0.77 -0.43 -0.40 nd -0.06 0.67,0.11,0 of 18
GETLNEYGIS,VIYSDGRRTFYGDSVK,GRAAGTFDS,0.96 1.42 1.16 1.61 1.88 1.55,1.43,1 of 18 (2.26)
GFTLNEYGIS,VIYSDGRRVFYHDSVR,GRAAGTFDS,1.11 1.45 2.09 2.58 0.64 1.09,1.49,1 of 18 (1.24)
GFSLNSYGIS,VEYFDGRRTFYGDSVK,ERADGTFDP,nd nd nd nd nd nd,nd,0 of 18
GFTLNSYGIS,VIYSDGRRCIYGDSVK,GRAAGTFDS,nd nd nd nd nd nd,nd,0 of 18
GFTLLSYGIS,VIYSDGRRTFYGDSVK,GRAAGNFDS,nd nd nd nd nd nd,nd,0 of 18
GNTLNEYGIS,VIYSDGRRTFYGDSVK,GDAAGTFDS,1.59 2.37 1.32 1.22 1.57 2.61,1.78,2 of 18 (2.06)
QFTLNSYGIS,VIYSDGRRTFYGDSVK,GELAGTFDS,2.30 1.56 nd nd nd 2.56,2.14,0 of 18
GFTLNEYGIS,VIYSDGRRTFMADSVK,GRLAGTSDS,nd nd nd nd nd nd,nd,0 of 18
GFTLNSYGIS,VIYADGRRTFYGDSVK,GRIVGTFLS,nd nd nd nd nd nd,nd,0 of 18
GFDLNSYGIS,VIYSDGLRTFYGDSVK,GRAAGTFHS,1.19 1.66 0.93 1.08 1.82 1.38,1.34,3 of 18 (2.22)
GFTLNSYGIS,VIYSDGRRTFYGDSVK,WDAAGTYDS,nd nd nd nd nd nd,nd,0 of 18
GFTLNEYGIS,VIYSDGRRTFYGDSVK,GRAALTFFS,nd nd nd nd nd nd,nd,0 of 18
GFTLNNYGIS,VIYSDGHRTFYGDKVK,GRNAGTFDS,nd nd nd nd nd nd,nd,0 of 18
GFTLNSYGIS,VMYSDGVRTFYGDAVK,GRAAGTFDS,nd nd nd 2.13 nd nd,2.13,0 of 18
GFTLNSYGIS,VIYSDGRRTFYGDSVK,GAAGGTFRS,nd nd nd nd nd nd,nd,0 of 18
GFNLNSYGIQ,IIYSDGRRTFYEDSVK,GRTAGTFDS,nd nd nd nd nd nd,nd,0 of 18
GFTVNSYGIS,VIYSDGKRTFYQDSVK,GRAAGTFNS,nd 0.93 nd nd 1.41 nd,1.17,0 of 18
YFTLNSYGIS,VIYSDGMRTFYSDSVK,GRAAGTFDD,1.19 nd 1.81 1.51 nd nd,1.50,0 of 18
GFTLNSYGIS,VDYSDGRRTFYYDSVK,GRAAGTFLL,nd nd nd nd nd nd,nd,0 of 18

5 of these entries, quoted again:

{"CDR-H1": "GFTLNDYGIS", "CDR-H2": "VIYSDGRRTFYGDEVK", "CDR-H3": "GSAAGTFDS", "replicates, log10 nM": "1.26 1.77 nd 1.21 0.49 1.04", "log10 Kd (nM), mean": "1.15", "signal with controls": "0 of 18"}
{"CDR-H1": "GFTLNSYGIS", "CDR-H2": "VIYSDGRRTFYGDSVK", "CDR-H3": "GRAAGTFKS", "replicates, log10 nM": "nd nd nd nd nd nd", "log10 Kd (nM), mean": "nd", "signal with controls": "0 of 18"}
{"CDR-H1": "GETLNEYGIS", "CDR-H2": "VIYSDGRRTFYGDSVK", "CDR-H3": "GRAAGTFDS", "replicates, log10 nM": "0.96 1.42 1.16 1.61 1.88 1.55", "log10 Kd (nM), mean": "1.43", "signal with controls": "1 of 18 (2.26)"}
{"CDR-H1": "GFDLNSYGIS", "CDR-H2": "VIYSDGLRTFYGDSVK", "CDR-H3": "GRAAGTFHS", "replicates, log10 nM": "1.19 1.66 0.93 1.08 1.82 1.38", "log10 Kd (nM), mean": "1.34", "signal with controls": "3 of 18 (2.22)"}
{"CDR-H1": "GFTLNSYGIS", "CDR-H2": "VIYSDGYRTFYGDDVK", "CDR-H3": "GRAAGQFDS", "replicates, log10 nM": "nd nd nd nd nd nd", "log10 Kd (nM), mean": "nd", "signal with controls": "0 of 18"}

Values of this round are not directly comparable with the first-round values of the same sequences.
The authors' rule: three or more of the six replicates give a measured affinity, fewer mean a poor binder.
Of ten entries with the parent sequence, four were seen in most replicates (averages 0.34 to 2.37), three in one and three in none, so single entries are noisy.